Measurements taken from PubChem BioAssay AID2280 (The Scripps Research Institute Molecular Screening Center, 2010).
This is a selection; strong and weak results do not stand in their true shares. Some salts or complexes appear as unconnected parts, following the source record. Calls of active or inactive are those of the source.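 How the source made its calls: active means percent inhibition above a per-plate cutoff, the plate mean of test compounds plus 3 SD (cut at about 30% in these data); inactive means the rest.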

The chains behind the UniProt entries cited, without tags or fusion partners.
UniProt Q17339, whole entry: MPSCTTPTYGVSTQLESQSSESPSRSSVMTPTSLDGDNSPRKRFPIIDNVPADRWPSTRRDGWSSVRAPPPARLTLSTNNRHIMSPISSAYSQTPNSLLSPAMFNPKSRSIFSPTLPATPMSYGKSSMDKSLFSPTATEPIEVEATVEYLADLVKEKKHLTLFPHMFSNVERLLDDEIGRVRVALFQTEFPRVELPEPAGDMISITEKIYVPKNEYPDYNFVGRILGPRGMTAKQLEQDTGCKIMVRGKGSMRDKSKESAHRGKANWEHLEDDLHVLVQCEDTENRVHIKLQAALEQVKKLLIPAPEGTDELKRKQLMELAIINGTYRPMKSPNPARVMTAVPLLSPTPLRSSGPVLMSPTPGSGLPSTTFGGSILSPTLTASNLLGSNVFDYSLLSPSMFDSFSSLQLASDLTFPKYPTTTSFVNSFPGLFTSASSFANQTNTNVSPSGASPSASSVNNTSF

Each compound was assayed against Female germline-specific tumor suppressor gld-1 (Caenorhabditis elegans) (UniProt Q17339) (assay: GLD-1/TGE RNA complex disruptors, primary screen, biochemical, fluorescence polarization (AID 2280;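 further: 0% = DMSO wells with GLD-1 and probe and 100% = wells lacking GLD-1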)). Conditions: purified GLD-1 + fluorescein TGE RNA, at 5.96 µM, hits give high values.

| Compound | inhibition |
| --- | --- |
| CP(=O)(Nc1ccc(Cl)cc1)Oc1ccc(F)cc1 (stereo unspecified) | inactive: 4.75% |
| CC(C)(C)c1ccc(OP(C)(=O)O)cc1 | inactive: -4.54% |
| COc1ccccc1OP(C)(=O)Nc1ccccc1Br (stereo unspecified) | inactive: -1.21% |
| CP(=O)(Oc1ccccc1)N1CCOC1=O (stereo unspecified) | inactive: 2.68% |
| CCc1ccc(OP(C)(=O)Nc2cccnc2)cc1 (stereo unspecified) | inactive: 6.89% |
| COc1ccccc1OP(C)(=O)Nc1c(C)n(C)n(-c2ccccc2)c1=O (stereo unspecified) | inactive: 5.86% |
| O=C(OCCCN1CCCC1)C(O)(c1ccccc1)C1CCCCC1 (stereo unspecified) | inactive: 3.4% |
| CCN(CC)CC(O)COC(=O)C(O)(c1ccccc1)C1CCCCC1 (stereo unspecified) | inactive: 6.14% |
| COc1ccc(OP(C)(=O)Nc2ccc(Br)cc2)cc1 (stereo unspecified) | inactive: 4.1% |
| CP(=O)(OC12CC3CC(CC(C3)C1)C2)OC12CC3CC(CC(C3)C1)C2 | inactive: 9.11% |
| CCOC(=O)c1ccc(NP(C)(=O)Oc2ccc(Cl)cc2)cc1 (stereo unspecified) | inactive: 5.61% |
| Nc1ccc2c(ccc3cccnc32)n1.O=[N+]([O-])c1cc([N+](=O)[O-])c(O)c([N+](=O)[O-])c1 | inactive: 1.82% |
| O=[N+]([O-])c1cc([N+](=O)[O-])c(NCC2CCS(=O)(=O)C2)c([N+](=O)[O-])c1 (stereo unspecified) | inactive: 1.8% |
| COc1ccc(NP(C)(=O)Oc2ccccc2OC)cc1 (stereo unspecified) | inactive: 4.3% |
| CN(C)CCOC(=O)C(O)(c1ccccc1)C1CCCCC1 (stereo unspecified) | inactive: 9.09% |
| COc1ccc(OP(C)(=O)Nc2cccc(Br)c2)cc1 (stereo unspecified) | inactive: 0.19% |

| Compound | inhibition |
| --- | --- |
| Cc1ccccc1NP(C)(=O)Nc1ccccc1C | inactive: -0.94% |
| CP(=O)(Nc1ccc2c(c1)OCCO2)Oc1ccccc1 (stereo unspecified) | inactive: 6.76% |
| CCOP(C)(=S)SCC(=O)NC(C)(CC)C(=O)O (stereo unspecified) | inactive: 5.82% |
| CP(=O)(Nc1ccc(SC(F)(F)F)cc1)Oc1ccc(F)cc1 (stereo unspecified) | inactive: 3.61% |
| COc1ccc2c(c1O)-c1c(O)c(OC)cc3c1[C@H](C2)[N+](C)(C)CC3.O=[N+]([O-])c1cc([N+](=O)[O-])c([O-])c([N+](=O)[O-])c1[O-] | inactive: 10.4% |
| O=C(OCCN1CCN(CCOCc2ccccc2)CC1)C(O)(c1ccccc1)c1ccccc1 | inactive: 7.09% |
| O=C(OC1CN2CCC1CC2)c1ccc([N+](=O)[O-])cc1 (stereo unspecified) | inactive: -1.89% |
| CC(C)c1ccc(OP(C)(=O)Nc2ccc(SC(F)(F)F)cc2)cc1 (stereo unspecified) | inactive: 8.84% |
| CP(=O)(Nc1ccccc1F)Oc1ccccc1 (stereo unspecified) | inactive: 2.3% |
| CCCCCOc1ccc(NP(C)(=O)Oc2ccc(Cl)cc2Cl)cc1 (stereo unspecified) | inactive: 4.54% |
| O=[N+]([O-])c1cc([N+](=O)[O-])c(OC2CCCCC2O)c([N+](=O)[O-])c1 (stereo unspecified) | inactive: 7.59% |
| CP(=O)(Nc1ccccc1)Oc1ccc(F)cc1 (stereo unspecified) | inactive: -12.4% |
| CCN(CC)CCCOC(=O)C(O)(c1ccccc1)C1CCCCC1 (stereo unspecified) | inactive: 2.9% |
| COc1ccc(OP(C)(=O)Nc2ccc(SC(F)(F)F)cc2)cc1 (stereo unspecified) | inactive: 0.78% |
| CCOC(=O)c1ccc(NP(C)(=O)Oc2ccc(F)cc2)cc1 (stereo unspecified) | inactive: -1.01% |
